These are literature values, as cited in paper PMC3162996 (Journal of natural products, 2011).

The conditions of the data set: Floridian collections of Lyngbya confervoides; ref [6],[7]; cited from earlier work.

Turning to grassypeptolide B [compound 4], the “cytotoxicity (in words)” value was “cytotoxic”.
For the substance grassypeptolide A [compound 3], the “cytotoxicity (in words)” value is reported as “cytotoxic”.
